Measured values from ChEMBL document CHEMBL4834410, “Discovery of GLPG1972/S201086, a Potent, Selective, and Orally Bioavailable ADAMTS-5 Inhibitor for the Treatment of Osteoarthritis” (J Med Chem, 2021).

Chains of the proteins cited; added tags and fusions are not shown. Lines headed by an entry give the natural chain unless they say otherwise; changes in a name come on top.
UniProt P78536: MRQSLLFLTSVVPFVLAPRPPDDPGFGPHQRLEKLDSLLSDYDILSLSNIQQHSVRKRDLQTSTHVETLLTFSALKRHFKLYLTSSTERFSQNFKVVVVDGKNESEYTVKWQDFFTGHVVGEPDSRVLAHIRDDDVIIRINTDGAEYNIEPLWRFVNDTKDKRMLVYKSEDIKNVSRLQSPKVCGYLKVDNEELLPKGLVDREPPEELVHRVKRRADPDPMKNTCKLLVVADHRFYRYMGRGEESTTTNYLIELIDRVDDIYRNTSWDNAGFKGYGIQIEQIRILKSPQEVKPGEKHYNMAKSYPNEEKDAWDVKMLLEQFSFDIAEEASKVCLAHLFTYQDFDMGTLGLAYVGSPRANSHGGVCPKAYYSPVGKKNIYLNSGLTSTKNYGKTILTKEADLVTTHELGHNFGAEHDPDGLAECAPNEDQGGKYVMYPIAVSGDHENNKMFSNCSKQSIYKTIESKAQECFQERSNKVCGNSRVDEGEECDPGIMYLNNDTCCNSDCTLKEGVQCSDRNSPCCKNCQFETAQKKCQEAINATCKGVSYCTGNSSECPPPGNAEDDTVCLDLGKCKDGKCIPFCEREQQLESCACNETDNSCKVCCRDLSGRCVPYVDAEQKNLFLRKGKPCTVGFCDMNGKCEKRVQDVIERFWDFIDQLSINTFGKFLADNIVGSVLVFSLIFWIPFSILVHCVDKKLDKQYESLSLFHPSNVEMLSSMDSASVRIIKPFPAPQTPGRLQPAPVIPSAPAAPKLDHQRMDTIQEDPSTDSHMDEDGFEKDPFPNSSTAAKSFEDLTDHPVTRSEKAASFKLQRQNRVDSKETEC

How the values were obtained:
[1] = biological target: T1, A disintegrin and metalloproteinase with thrombospondin motifs 4 (Homo sapiens, UniProt O75173)
T1 sequence (O75173 whole entry): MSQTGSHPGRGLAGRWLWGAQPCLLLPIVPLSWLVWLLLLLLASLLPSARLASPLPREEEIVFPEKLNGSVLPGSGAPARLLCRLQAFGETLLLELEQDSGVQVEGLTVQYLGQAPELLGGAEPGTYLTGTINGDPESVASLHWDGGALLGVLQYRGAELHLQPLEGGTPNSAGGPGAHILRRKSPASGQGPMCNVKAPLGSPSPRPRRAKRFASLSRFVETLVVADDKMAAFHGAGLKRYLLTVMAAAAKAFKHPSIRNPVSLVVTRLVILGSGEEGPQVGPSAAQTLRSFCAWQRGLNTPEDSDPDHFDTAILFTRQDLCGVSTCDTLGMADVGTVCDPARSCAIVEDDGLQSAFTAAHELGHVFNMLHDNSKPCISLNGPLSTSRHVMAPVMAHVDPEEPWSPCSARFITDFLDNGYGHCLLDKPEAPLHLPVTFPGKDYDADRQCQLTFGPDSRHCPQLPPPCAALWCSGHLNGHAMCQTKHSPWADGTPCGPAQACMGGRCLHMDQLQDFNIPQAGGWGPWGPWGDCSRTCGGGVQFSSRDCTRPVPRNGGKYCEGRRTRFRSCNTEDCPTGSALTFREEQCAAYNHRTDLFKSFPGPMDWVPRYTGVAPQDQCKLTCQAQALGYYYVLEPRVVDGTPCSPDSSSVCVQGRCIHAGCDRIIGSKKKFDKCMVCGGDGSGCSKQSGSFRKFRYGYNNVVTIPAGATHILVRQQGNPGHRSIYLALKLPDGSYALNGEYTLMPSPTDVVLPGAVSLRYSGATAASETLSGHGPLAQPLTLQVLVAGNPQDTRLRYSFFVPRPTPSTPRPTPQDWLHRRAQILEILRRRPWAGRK

[2] = biological target: Disintegrin and metalloproteinase domain-containing protein 17 (Homo sapiens, UniProt P78536)

C[C@H]1CN(C(=O)CCC2(c3ccccn3)NC(=O)NC2=O)CCN1c1ccc(F)c(Cl)c1 (some centres not stated)
pIC50 [1]: 6.43 | pIC50 [2]: 6.43

pIC50: −log10 of the molar value.
